The nature of the series: Pharmacokinetic analysis of blood samples (noncompartmental). To be noted: sorafenib, steady state (cycle 2), non-HCC patients, tivantinib 360 mg BID and sorafenib 400 mg BID. The format is in vivo, human. As to the method: Blood samples were collected pre-, 1, 2, 4, 6, 8, 12, and 24 h post-dose on Days 1 and 2 of Cycles 1 and 2. The day before and on the day of PK sampling, tivantinib and sorafenib were administered at the same time. Noncompartmental PK parameters were calculated using WinNonlin (Pharsight, Mountain View, CA).

Each structure is given as a SMILES string.

With `CNC(=O)c1cc(Oc2ccc(NC(=O)Nc3ccc(Cl)c(C(F)(F)F)c3)cc2)ccn1` [sorafenib], the “mean Cmax” value was 6,757 ± 3,725 ng/mL.

The values above are taken from article PMC4295023 (Investigational New Drugs, 2014).
